Experimental data from patent US6936585B2, “Corticotropin releasing factor 2 receptor agonists” (priority 2002, dated 2005).

What was measured:
CRF2R = target: T1, CRF2R (Homo sapiens, UniProt Q13324); experiment: CRF2R agonist activation (EC50 / Emax), called comparative CRF binding; assay type: cell-based; settings: for Emax: read-out: CRF2R Emax
T1 sequence (Q13324 1-411): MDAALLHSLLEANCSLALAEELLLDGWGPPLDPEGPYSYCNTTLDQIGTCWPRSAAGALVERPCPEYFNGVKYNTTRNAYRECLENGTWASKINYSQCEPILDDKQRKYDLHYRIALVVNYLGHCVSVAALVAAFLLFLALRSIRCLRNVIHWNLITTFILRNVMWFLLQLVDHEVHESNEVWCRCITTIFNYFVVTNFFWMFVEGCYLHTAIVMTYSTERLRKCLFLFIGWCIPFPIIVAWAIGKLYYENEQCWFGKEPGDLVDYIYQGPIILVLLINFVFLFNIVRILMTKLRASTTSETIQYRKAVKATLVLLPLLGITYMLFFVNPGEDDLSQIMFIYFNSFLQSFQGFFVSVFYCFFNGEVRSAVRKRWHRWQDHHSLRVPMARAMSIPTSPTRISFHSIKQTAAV
Summary of the method: (§1)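 Peptides are tested on cells bearing CRF1R or CRF2R, full length or as ligand-binding-domain constructs coupled to reporters or G proteins. Activation is scored by cAMP rise, measured in lysates or by CRE-reporter output, against vehicle control.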

CRF1R = target: T2, CRF1R (Homo sapiens, UniProt P34998); experiment: CRF1R agonist activation (EC50 / Emax), called comparative CRF binding; assay type: cell-based; settings: for EC50: CRF1R EC50; for Emax: read-out: CRF1R Emax
T2 sequence (P34998 24-415): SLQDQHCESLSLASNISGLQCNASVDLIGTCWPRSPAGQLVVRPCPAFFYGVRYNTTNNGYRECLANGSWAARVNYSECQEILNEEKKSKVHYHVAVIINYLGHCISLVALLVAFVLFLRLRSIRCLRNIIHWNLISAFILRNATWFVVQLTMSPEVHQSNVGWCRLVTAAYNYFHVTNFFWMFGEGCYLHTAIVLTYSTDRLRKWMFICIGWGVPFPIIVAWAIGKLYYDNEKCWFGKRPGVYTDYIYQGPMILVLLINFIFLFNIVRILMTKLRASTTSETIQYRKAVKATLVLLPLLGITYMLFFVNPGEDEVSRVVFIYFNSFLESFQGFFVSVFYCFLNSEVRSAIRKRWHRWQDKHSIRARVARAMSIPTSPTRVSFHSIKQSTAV
Summary of the method: as §1

SMILES: CC[C@H](C)[C@H](NC(=O)[C@@H](NC(=O)[C@H](CC(=O)O)NC(=O)[C@H](CC(C)C)NC(=O)[C@H](CC(C)C)NC(=O)[C@H](CC(C)C)NC(=O)[C@H](CCCNC(=N)N)NC(=O)[C@H](CC(N)=O)NC(=O)[C@H](CC(N)=O)NC(=O)[C@H](C)NC(=O)[C@H](C)NC(=O)[C@H](CCC(N)=O)NC(=O)[C@H](CCC(N)=O)NC(=O)[C@H](CCCCN)NC(=O)[C@H](CCC(=O)O)NC(=O)[C@H](CCCCN)NC(=O)[C@H](CCC(=O)O)NC(=O)[C@H](CCC(N)=O)NC(=O)[C@H](CCCCN)NC(=O)[C@H](CCC(=O)O)NC(=O)[C@@H](NC(=O)[C@H](CCC(=O)O)NC(=O)[C@@H](NC(=O)[C@H](CCSC)NC(=O)[C@H](CCCCN)NC(=O)[C@H](CCCNC(=N)N)NC(=O)[C@H](CC(C)C)NC(=O)[C@H](CC(C)C)NC(=O)[C@H](Cc1ccccc1)NC(=O)[C@H](Cc1ccccc1)NC(=O)[C@@H]1CCCN1C(=O)[C@H](CC(C)C)NC(=O)[C@H](CC(=O)O)NC(=O)[C@@H](NC(=O)[C@H](CO)NC(=O)[C@@H](NC(=O)[C@@H]1CCCN1C(=O)[C@@H]1CCCN1C(=O)CNC(=O)[C@@H]1CCC(=O)N1)[C@@H](C)CC)[C@@H](C)CC)[C@@H](C)CC)[C@@H](C)CC)[C@@H](C)O)C(N)=O [compound 223]
- EC50 (CRF2R): 3 nM
- Emax (CRF2R): 92%
- EC50 (CRF1R): 48.1 nM
- Emax (CRF1R): 81%

SMILES: CC[C@H](C)[C@H](NC(=O)[C@@H](NC(=O)[C@H](CC(=O)O)NC(=O)[C@H](CC(C)C)NC(=O)[C@H](CC(C)C)NC(=O)[C@H](CC(C)C)NC(=O)[C@H](CCCNC(=N)N)NC(=O)[C@H](CC(N)=O)NC(=O)[C@H](CC(N)=O)NC(=O)[C@H](C)NC(=O)[C@H](C)NC(=O)[C@H](CCC(N)=O)NC(=O)[C@H](CCC(N)=O)NC(=O)[C@H](CCCCN)NC(=O)[C@H](CCC(=O)O)NC(=O)[C@H](CCCCN)NC(=O)[C@H](CCC(=O)O)NC(=O)[C@H](CCC(N)=O)NC(=O)[C@H](CCCCN)NC(=O)[C@H](CCC(=O)O)NC(=O)[C@@H](NC(=O)[C@H](CCC(=O)O)NC(=O)[C@@H](NC(=O)[C@H](CCSC)NC(=O)[C@H](CCCCN)NC(=O)[C@H](CCCNC(=N)N)NC(=O)[C@H](CC(C)C)NC(=O)[C@H](CC(C)C)NC(=O)[C@H](Cc1c[nH]c2ccccc12)NC(=O)[C@H](Cc1c[nH]c2ccccc12)NC(=O)[C@@H]1CCCN1C(=O)[C@H](CC(C)C)NC(=O)[C@H](CC(=O)O)NC(=O)[C@@H](NC(=O)[C@H](CO)NC(=O)[C@@H](NC(=O)[C@@H]1CCCN1C(=O)[C@@H]1CCCN1C(=O)CNC(=O)[C@@H]1CCC(=O)N1)[C@@H](C)CC)[C@@H](C)CC)[C@@H](C)CC)[C@@H](C)CC)[C@@H](C)O)C(N)=O [compound 216]
- Emax (CRF2R): 90%
- Emax (CRF1R): 98%

SMILES: CC[C@H](C)[C@H](NC(=O)[C@@H](NC(=O)[C@H](CC(=O)O)NC(=O)[C@H](CC(C)C)NC(=O)[C@H](CC(C)C)NC(=O)[C@H](CC(C)C)NC(=O)[C@H](C)NC(=O)[C@H](CC(N)=O)NC(=O)[C@H](CC(N)=O)NC(=O)[C@H](C)NC(=O)[C@H](C)NC(=O)[C@H](CCC(N)=O)NC(=O)[C@H](CCC(N)=O)NC(=O)[C@H](CCCCN)NC(=O)[C@H](CCC(=O)O)NC(=O)[C@H](CCCCN)NC(=O)[C@H](CCC(=O)O)NC(=O)[C@H](CCC(N)=O)NC(=O)[C@H](CCCCN)NC(=O)[C@H](CCC(=O)O)NC(=O)[C@@H](NC(=O)[C@H](CCC(=O)O)NC(=O)[C@@H](NC(=O)[C@@H](NC(=O)[C@H](CCCCN)NC(=O)[C@H](CCCNC(=N)N)NC(=O)[C@H](CC(C)C)NC(=O)[C@H](CC(C)C)NC(=O)[C@H](CCC(N)=O)NC(=O)[C@H](Cc1ccccc1)NC(=O)[C@@H]1CCCN1C(=O)[C@H](CC(C)C)NC(=O)[C@H](CC(=O)O)NC(=O)[C@@H](NC(=O)[C@H](CO)NC(=O)[C@@H](NC(=O)[C@@H]1CCCN1C(=O)[C@@H]1CCCN1C(=O)CNC(=O)[C@@H]1CCC(=O)N1)[C@@H](C)CC)[C@@H](C)CC)C(C)C)[C@@H](C)CC)[C@@H](C)CC)[C@@H](C)O)C(N)=O [compound 350]
- EC50 (CRF2R): 11.6 nM
- Emax (CRF2R): 98.1%
- EC50 (CRF1R): ≥ 1000 nM
- Emax (CRF1R): 48%

SMILES: CC[C@H](C)[C@H](NC(=O)[C@@H](NC(=O)[C@H](CC(=O)O)NC(=O)[C@H](CC(C)C)NC(=O)[C@H](CC(C)C)NC(=O)[C@H](CC(C)C)NC(=O)[C@H](CCCNC(=N)N)NC(=O)[C@H](CC(N)=O)NC(=O)[C@H](CC(N)=O)NC(=O)[C@H](C)NC(=O)[C@H](C)NC(=O)[C@H](CCC(N)=O)NC(=O)[C@H](CCC(N)=O)NC(=O)[C@H](CCCCN)NC(=O)[C@H](CCC(=O)O)NC(=O)[C@H](CCCCN)NC(=O)[C@H](CCC(=O)O)NC(=O)[C@H](CCC(N)=O)NC(=O)[C@H](CCCCN)NC(=O)[C@H](CCC(=O)O)NC(=O)[C@@H](NC(=O)[C@H](CCC(=O)O)NC(=O)[C@@H](NC(=O)[C@H](CCSC)NC(=O)[C@H](CCCCN)NC(=O)[C@H](CCCNC(=N)N)NC(=O)[C@H](CC(C)C)NC(=O)[C@H](CC(C)C)NC(=O)[C@H](Cc1ccccc1)NC(=O)[C@@H](NC(=O)[C@@H]1CCCN1C(=O)[C@H](CC(C)C)NC(=O)[C@H](CC(=O)O)NC(=O)[C@@H](NC(=O)[C@H](CO)NC(=O)[C@@H](NC(=O)[C@@H]1CCCN1C(=O)[C@@H]1CCCN1C(=O)CNC(=O)[C@@H]1CCC(=O)N1)[C@@H](C)CC)[C@@H](C)CC)[C@@H](C)CC)[C@@H](C)CC)[C@@H](C)CC)[C@@H](C)O)C(N)=O [compound 29]
- Emax (CRF2R): 100%
- Emax (CRF1R): 79%

SMILES: CC[C@H](C)[C@H](NC(=O)[C@H](CCCNC(=N)N)NC(=O)[C@H](C)NC(=O)[C@H](CC(C)C)NC(=O)[C@H](CC(C)C)NC(=O)[C@H](CCCNC(=N)N)NC(=O)[C@H](C)NC(=O)[C@H](CC(N)=O)NC(=O)[C@H](CC(N)=O)NC(=O)[C@H](C)NC(=O)[C@H](C)NC(=O)[C@H](CCC(N)=O)NC(=O)[C@H](CCC(N)=O)NC(=O)[C@H](CCCCN)NC(=O)[C@H](CCC(=O)O)NC(=O)[C@H](CCCCN)NC(=O)[C@H](CCC(=O)O)NC(=O)[C@H](CCC(N)=O)NC(=O)[C@H](CCCCN)NC(=O)[C@H](CCC(=O)O)NC(=O)[C@@H](NC(=O)[C@H](CCC(=O)O)NC(=O)[C@@H](NC(=O)[C@@H](NC(=O)[C@H](CCCCN)NC(=O)[C@H](CCCNC(=N)N)NC(=O)[C@H](CC(C)C)NC(=O)[C@H](CC(C)C)NC(=O)[C@H](Cc1c[nH]cn1)NC(=O)[C@H](Cc1ccc(O)cc1)NC(=O)[C@@H]1CCCN1C(=O)[C@@H](NC(=O)[C@H](CC(=O)O)NC(=O)[C@@H](NC(=O)[C@H](CO)NC(=O)[C@@H](NC(=O)[C@@H]1CCCN1C(=O)[C@@H]1CCCN1C(=O)CNC(=O)[C@@H]1CCC(=O)N1)[C@@H](C)CC)[C@@H](C)CC)C(C)C)C(C)C)[C@@H](C)CC)[C@@H](C)CC)C(N)=O [compound 377]
- EC50 (CRF2R): 19.3 nM
- Emax (CRF2R): 83%
- EC50 (CRF1R): ≥ 1000 nM
- Emax (CRF1R): 25%

SMILES: CC[C@H](C)[C@H](NC(=O)[C@@H](NC(=O)[C@H](CC(=O)O)NC(=O)[C@H](CC(C)C)NC(=O)[C@H](CC(C)C)NC(=O)[C@H](CC(C)C)NC(=O)[C@H](CCCNC(=N)N)NC(=O)[C@H](CC(N)=O)NC(=O)[C@H](CC(N)=O)NC(=O)[C@H](C)NC(=O)[C@H](C)NC(=O)[C@H](CCC(N)=O)NC(=O)[C@H](CCC(N)=O)NC(=O)[C@H](CCCCN)NC(=O)[C@H](CCC(=O)O)NC(=O)[C@H](CCCCN)NC(=O)[C@H](CCC(=O)O)NC(=O)[C@H](CCC(N)=O)NC(=O)[C@H](CCCCN)NC(=O)[C@H](CCC(=O)O)NC(=O)[C@@H](NC(=O)[C@H](CCC(=O)O)NC(=O)[C@@H](NC(=O)[C@H](CCSC)NC(=O)[C@H](CCCCN)NC(=O)[C@H](CCCNC(=N)N)NC(=O)[C@H](CC(C)C)NC(=O)[C@H](CC(C)C)NC(=O)[C@H](CC(C)C)NC(=O)[C@H](Cc1ccccc1)NC(=O)[C@@H]1CCCN1C(=O)[C@H](CC(C)C)NC(=O)[C@H](CC(=O)O)NC(=O)[C@@H](NC(=O)[C@H](CO)NC(=O)[C@@H](NC(=O)[C@@H]1CCCN1C(=O)[C@@H]1CCCN1C(=O)CNC(=O)[C@@H]1CCC(=O)N1)[C@@H](C)CC)[C@@H](C)CC)[C@@H](C)CC)[C@@H](C)CC)[C@@H](C)O)C(N)=O [compound 191]
- EC50 (CRF2R): 8.3 nM
- Emax (CRF2R): 100%
- EC50 (CRF1R): 63.7 nM
- Emax (CRF1R): 65%
